Results: article PMC6664433 (Cancer discovery, 2019)

How the values were obtained:
[1] = tested on: EGFR-mutant NSCLC patients; details: cited from earlier work
H3255GR cells = experiment: Cell viability assay; details: cetuximab alone 1μg/ml or 10μg/ml

Molecule | PFS ([1]; osimertinib vs comparator arm gefitinib or erlotinib) | median PFS ([1]; patients with an L858R mutation, comparator arm gefitinib or erlotinib) | effect on cell viability (H3255GR cells)
COc1cc2ncnc(Nc3ccc(F)c(Cl)c3)c2cc1OCCCN1CCOCC1 [gefitinib] | 10.2 months | 9.5 months | –
Cetuximab: anti-EGFR antibody that disrupts EGFR dimers | – | – | had no effect
